Laboratory results published in PubChem BioAssay AID1032 (The Scripps Research Institute Molecular Screening Center, 2008).
The entries are a selection whose mix differs from that of the whole data set. Active and inactive are the calls of the source. Rule as the data show it: active = activation above about 22%; inactive = the rest.

Protein sequences, listed by entry. Tags and fused reporters are not part of them. Lines headed by an entry give the natural chain unless they say otherwise; changes in a name come on top.
UniProt P37231: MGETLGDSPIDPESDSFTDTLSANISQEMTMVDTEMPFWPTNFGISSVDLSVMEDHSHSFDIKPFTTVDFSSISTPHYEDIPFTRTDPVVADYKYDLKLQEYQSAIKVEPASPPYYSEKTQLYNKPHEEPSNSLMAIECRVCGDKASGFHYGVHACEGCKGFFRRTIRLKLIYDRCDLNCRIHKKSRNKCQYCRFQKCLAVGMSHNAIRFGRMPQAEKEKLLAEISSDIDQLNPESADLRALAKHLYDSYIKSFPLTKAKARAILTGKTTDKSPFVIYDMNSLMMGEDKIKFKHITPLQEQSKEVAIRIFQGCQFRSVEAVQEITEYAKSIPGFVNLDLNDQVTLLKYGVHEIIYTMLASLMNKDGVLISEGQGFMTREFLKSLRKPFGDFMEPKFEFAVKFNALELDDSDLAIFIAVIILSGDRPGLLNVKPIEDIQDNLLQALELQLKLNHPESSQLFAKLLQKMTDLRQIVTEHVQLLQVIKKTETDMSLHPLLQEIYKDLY

These molecules were tested against Peroxisome proliferator-activated receptor gamma (Homo sapiens) (UniProt P37231) (assay: agonists of PPARg-SRC-2 recruitment, primary screen, biochemical, HTS (AID 1032;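 also: 0% = vehicle and 100% = reference agonist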)). Details: PPARgamma LBD-SRC-2 recruitment, at 8 µM, stronger effect = higher value.

SMILES | activation
CCC(C)N(CC(C)C)C(=S)SC(NC(C)=O)C(Cl)(Cl)Cl (stereo not given) | inactive: 17.3%
COP1(=S)c2c(C)nn(CCC#N)c2N=C(c2ccc(F)cc2)N1C (stereo not given) | inactive: 5.31%
O=C(COc1ccccc1)OC1CN2CCC1CC2 (stereo not given) | inactive: -0.81%
Cc1cc(SC(NC=O)C(Cl)(Cl)Cl)ncn1 (stereo not given) | inactive: 3.79%
O=P(Nc1ccccn1)(c1cccc2ccccc12)c1cccc2ccccc12 | inactive: -0.03%
Cc1cc(SC(NC(=O)c2ccccc2)C(Cl)(Cl)Cl)nc(C(C)C)n1 (stereo not given) | inactive: 6.92%
ClCCSc1nnc(-c2cccnc2)o1 | inactive: 1.7%
O=[N+]([O-])c1cc([N+](=O)[O-])c(-c2ccn[nH]2)s1 | inactive: 3.37%
CC(C)NC(=O)NP(=O)(Oc1ccccc1)Oc1ccccc1 | inactive: 0.92%
CCN(CC)C(=S)SC(NC=O)C(Cl)(Cl)Cl (stereo not given) | inactive: -5.02%
Cc1ccc2nc3c(c(C)c2c1)CC(C(Cl)Cl)S3 (stereo not given) | inactive: 0.88%
COc1ccc(N/C(=N/P(=O)(N2CCOCC2)N2CCOCC2)N2CCOCC2)cc1 | inactive: 12.1%
Cc1cc(=O)[nH]c(N[N+](=O)[O-])n1 | inactive: 0.77%
O=C(OC1CN2CCC1CC2)C12CC3CC(CC(C3)C1)C2 (stereo not given) | inactive: 5.12%
Cc1c2c(nc3ccccc13)SC(C(Cl)Cl)C2 (stereo not given) | inactive: 0.14%
COc1ccc2nc(NP(=O)(c3ccccc3)c3ccccc3)sc2c1 | inactive: -3.71%
Cc1ccc(NCCc2c([N+](=O)[O-])cc([N+](=O)[O-])cc2[N+](=O)[O-])cc1 | inactive: 10.7%
CCOP(=O)(Nc1cccc2ccccc12)OCC | inactive: 3.54%
COc1cc(C2NCCC3(OCCO3)C2(C)C)cc(OC)c1OC (stereo not given) | inactive: 7.24%
COc1cc(C(=O)NCC2(N3CCOCC3)CCCCC2)cc(Cl)c1OC(C)C | inactive: 7.94%
Cc1cccc(OCC(=O)OC2CN3CCC2CC3)c1 (stereo not given) | inactive: -5.05%
O=[N+]([O-])c1ccc2c(c1)nnn2O | inactive: 7.54%
CCOP1(=S)c2c(C)nn(CCC#N)c2N=C(c2ccc(F)cc2)N1C (stereo not given) | inactive: -3.39%
O=P(Nc1nccs1)(Oc1ccccc1)Oc1ccccc1 | inactive: -2.65%
O=P(Nc1nccs1)(c1ccccc1)c1nc2ccccc2s1 (stereo not given) | inactive: 7.81%
CCOP1(=S)c2c(C)nn(CCC#N)c2N=C(c2ccccc2F)N1C (stereo not given) | inactive: 0.96%
O=P1(Nc2ncccn2)COc2ccccc2OC1 | inactive: -11.3%

SMILES | activation
Cc1ccc(OCC(=O)OC2CN3CCC2CC3)cc1 (stereo not given) | inactive: -1.36%
O=P1(Nc2ccc(Br)cn2)COc2ccccc2OC1 | inactive: -6.3%
CC1CCC(C(C)C)C(OP(=O)(Nc2ccccn2)c2ccccc2)C1 (stereo not given) | inactive: 3.51%
Cc1nn(-c2ccccc2)c2c1P(=O)(N1CCOCC1)N(C)C(c1ccccc1)=N2 (stereo not given) | inactive: 8.72%
CN(C)C1(CNC(=O)c2ccc(S(C)(=O)=O)cc2)CCCCC1 | inactive: -5.96%
CC1(CBr)Cn2c(nc3ccccc3c2=O)S1 (stereo not given) | inactive: 5.38%
CN(C(=O)Cc1ccc(Cl)c(Cl)c1)[C@@H]1CCCC[C@H]1N1CCCC1 | inactive: 4%
CC(C)/C=N\N=C(\N)N[N+](=O)[O-] | inactive: -10.8%
O=P1(Nc2ccccn2)COc2ccccc2OC1 | inactive: -0.98%
Clc1n[nH]nc1-c1nn[nH][15n]1 | inactive: 6.42%
O=P(Nc1nccs1)(c1ccccc1)c1ccccc1 | inactive: 10.8%
CC(C)C(=O)NC(Sc1ccccc1)C(Cl)(Cl)Cl (stereo not given) | inactive: 2.18%
c1nnnn1CCn1cnnn1 | inactive: 0.26%
CC(=O)NC(SC(=S)N(C)C)C(Cl)(Cl)Cl (stereo not given) | inactive: -10.7%
C(Cc1nn[nH]n1)Cc1nn[nH]n1 | inactive: -5.32%
O=C(OC1CN2CCC1CC2)c1cccc(Cl)c1 (stereo not given) | inactive: 10.7%
O=P(Nc1ccccn1)(c1ccc(Br)cc1)c1ccc(Br)cc1 | inactive: 9.01%
Cc1ccc(OP(=O)(Nc2ccccn2)Oc2ccc(C)cc2)cc1 | inactive: -6.28%
CC(=O)NC(SC(=S)N(CC(C)C)CC(C)C)C(Cl)(Cl)Cl (stereo not given) | inactive: 13.5%
COC(=O)c1cc2c(s1)N=C(c1ccccc1)N(C)P2(=O)N1CCOCC1 (stereo not given) | inactive: 3.67%
CCC(=O)N1C2C3N(C(=O)CC)C1C1N(C(=O)CC)C(C(N1C(=O)CC)N3C(=O)CC)N2C(=O)CC | inactive: 6.39%
O=c1c2cc([N+](=O)[O-])ccc2[nH]c2c([N+](=O)[O-])cc([N+](=O)[O-])cc12 | inactive: -1.64%
O=C(NC1CCS(=O)(=O)C1)NP(=S)(Oc1ccccc1)Oc1ccccc1 (stereo not given) | inactive: 0.55%
CCNC(=S)/N=C(\N)N[N+](=O)[O-] | inactive: 0.94%
CCOC(=O)NC(Sc1ccccc1)C(Cl)(Cl)Cl (stereo not given) | inactive: -5.05%
c1ccc(-c2nn[nH]n2)c(-c2nn[nH]n2)c1 | inactive: 0.06%
CC(=O)Nc1ccc(Oc2c([N+](=O)[O-])cc([N+](=O)[O-])cc2[N+](=O)[O-])cc1 | inactive: -1.17%

SMILES | activation
CCOc1ccc(C2=NCC(CBr)S2)cc1 (stereo not given) | inactive: -0.66%
O=P1(Nc2nc3ccc(Cl)cc3s2)COc2ccccc2O1 (stereo not given) | inactive: 1.46%
CC(C)(C)C(=O)NC(Sc1ccccc1)C(Cl)(Cl)Cl (stereo not given) | inactive: -9.18%
CC(C)CC(=O)NC(Sc1ccc(Cl)cc1)C(Cl)(Cl)Cl (stereo not given) | inactive: -9.46%
O=C(NC(Sc1ccncn1)C(Cl)(Cl)Cl)c1ccccc1 (stereo not given) | inactive: -3.49%
Cc1c2non([O-])c-2c(C)[n+](=O)[n+]1[O-] | inactive: 4.09%
Oc1ccccc1CNc1ccccn1 | inactive: 0.85%
NC(=O)c1cc([N+](=O)[O-])cc([N+](=O)[O-])c1N | inactive: -1.19%
Cc1ccc(N/C(=N/P(=O)(N2CCOCC2)N2CCOCC2)N2CCOCC2)cc1 | inactive: 0.83%
COc1ccccc1OP(=O)(Nc1ccc(C)cn1)Oc1ccccc1OC | inactive: -3.94%
CN1CCCC(OC(=O)C(c2ccccc2)c2ccccc2)C1 (stereo not given) | inactive: 6.16%
Clc1ccc(Cl)c(NC2=NCC(CBr)S2)c1 (stereo not given) | inactive: 0.95%
CCN(N=Nc1nonc1N)c1nonc1N | inactive: -9.09%
Cc1cc(SC(NC(=O)c2ccc(F)cc2)C(Cl)(Cl)Cl)ncn1 (stereo not given) | inactive: 5.75%
CCOP(=O)(Nc1ccccc1)OCC | inactive: -2.01%
O=[N+]([O-])c1ncn(CCn2ncnc2[N+](=O)[O-])n1 | inactive: 1.48%
CCN(/C(=N/P(=O)(N1CCOCC1)N1CCOCC1)N1CCOCC1)c1ccc(OC)cc1 | inactive: 10%
CN(C)C(=O)OCCc1n(C)cc[n+]1C | inactive: 1.22%
CC(C)=N/N=C(\N)N[N+](=O)[O-] | inactive: -8.53%
CC1CCN(C(=O)Oc2c(Cl)cc(Cl)c3cccnc23)CC1 | inactive: 7.95%
COc1ccc(C2=NCC(CBr)S2)cc1 (stereo not given) | inactive: 0.14%
CC(=O)N1C2C3N(C(C)=O)C1C1N(C(C)=O)C(C(N1C(C)=O)N3C(C)=O)N2C(C)=O | inactive: 4.46%
O=[N+]([O-])c1cccc2n[nH]nc12 | inactive: 5.99%
O=[N+]([O-])c1cc([N+](=O)[O-])c(CCNc2ccccc2)c([N+](=O)[O-])c1 | inactive: 2%
CCc1nc2c(n1)c1c(non1O)c1c2no[n+]1[O-] | inactive: -5.79%
Cc1ccc(NP(=O)(Oc2ccccc2)Oc2ccccc2)nc1 | inactive: -7.48%
